## Ab-14 light chain CDR variants: yeast mating affinities

The target is the same throughout: PDVDLGDISGINAS, from the HR2 region of SARS-CoV-2 spike.

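Designed CDR sequences, proposed from the first random library and measured here. Their group label is 14L_En_Gibbs (En: ensemble of fine-tuned language models; Gibbs: Gibbs sampling). Affinity was read by AlphaSeq, a pooled yeast mating assay with surface-displayed partners. Pairs that bind mate more often; barcode pairs of the diploids are counted by sequencing. A regression on co-assayed BCL2-family reference pairs converts the normalised counts of each replicate to an apparent Kd. Mating was done six times.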

Parent: Ab-14, a human scFv built as VH, the linker GGGGSGGGGSGGGGS, VL. Only the CDRs of the light chain vary.
VH: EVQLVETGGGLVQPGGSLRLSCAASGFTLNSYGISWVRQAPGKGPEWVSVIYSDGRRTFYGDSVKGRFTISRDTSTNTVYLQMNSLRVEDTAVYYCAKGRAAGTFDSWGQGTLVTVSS
VL: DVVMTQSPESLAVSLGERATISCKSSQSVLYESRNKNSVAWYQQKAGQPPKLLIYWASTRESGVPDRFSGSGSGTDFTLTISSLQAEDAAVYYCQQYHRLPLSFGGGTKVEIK

The parent's light chain CDRs are KSSQSVLYESRNKNSVA, WASTRES, QQYHRLPLS; each variant's own CDRs replace them letter for letter. Numbers give log10(Kd / nM), so 0 is 1 nM and 3 is 1 µM. Smaller is tighter. An entry "nd" has no value in the source: the pair was not observed among the diploids in that replicate. This suggests poor binding but is not conclusive. Values of this round are not directly comparable with the first-round values of the same sequences. The parent sequence was in this pool as ten entries: three were never detected, three once, and four in most replicates, with averages from 0.34 to 2.37. Nonspecific signal, from three strains lacking the peptide, appeared in 4% of pairings of all light chain designs, centred on 2.64 (5% of these signals below 1.59); values are not corrected for it. For each scFv, signals with the empty controls are counted beside the result, with their mean in brackets. The authors averaged sequences with at least three values out of six and counted those with two or fewer as poor binders.

{"CDR-L1": "KLPHLSFVHDREKNNVA", "CDR-L2": "DLNVKCS", "CDR-L3": "QQYDRLPLV", "log10 Kd (nM) by replicate": "0.44 / 0.24 / 0.13 / 0.14 / 0.14 / 0.49", "empty controls": "1/18 (2.72)"}
{"CDR-L1": "KISTQIPEFEMDDNAIA", "CDR-L2": "EATLRET", "CDR-L3": "QHYQRLPLS", "log10 Kd (nM) by replicate": "0.17 / 0.46 / 0.29 / -0.10 / 0.19 / 0.70", "empty controls": "2/18 (2.34)"}
{"CDR-L1": "SLDSAVGYDLQNKKNIA", "CDR-L2": "EETRVDR", "CDR-L3": "QQYAHLPLM", "log10 Kd (nM) by replicate": "-0.10 / 0.31 / 0.30 / 0.63 / 0.61 / 0.10", "empty controls": "0/18"}
{"CDR-L1": "HMTIDIEMEAKHQNSVA", "CDR-L2": "EASHTEY", "CDR-L3": "QQYSELPLT", "log10 Kd (nM) by replicate": "0.83 / 2.46 / 1.59 / 0.69 / 1.43 / 1.88", "empty controls": "0/18"}
{"CDR-L1": "KVDISPHVQGMHKHGVA", "CDR-L2": "EHDMRVS", "CDR-L3": "QQYDRLPLA", "log10 Kd (nM) by replicate": "0.45 / 0.50 / 0.42 / 0.28 / 0.26 / 0.62", "empty controls": "0/18"}
{"CDR-L1": "WLNAEDQGDDRGMNNIA", "CDR-L2": "GGDTKMA", "CDR-L3": "QQYHRLPLS", "log10 Kd (nM) by replicate": "0.26 / 0.00 / 0.14 / -0.11 / -0.03 / 0.05", "empty controls": "0/18"}
{"CDR-L1": "AVSIQHMENTAIWNAIA", "CDR-L2": "DTSLRNH", "CDR-L3": "QQYYHLPLS", "log10 Kd (nM) by replicate": "0.85 / 0.64 / 0.42 / 0.90 / 0.74 / 0.85", "empty controls": "1/18 (2.33)"}
{"CDR-L1": "KLGEKERMNGMANKNVA", "CDR-L2": "ADNTRVD", "CDR-L3": "QEYHRLPLI", "log10 Kd (nM) by replicate": "0.89 / 1.35 / 1.63 / 0.66 / 1.06 / 0.87", "empty controls": "1/18 (2.09)"}
{"CDR-L1": "TLAQGIYEGVRKSNNVA", "CDR-L2": "EASHVTD", "CDR-L3": "QQYERLPLE", "log10 Kd (nM) by replicate": "0.06 / -0.06 / -0.19 / -0.14 / -0.15 / 0.05", "empty controls": "1/18 (2.90)"}
{"CDR-L1": "TLMHHQDRYDVWKESIA", "CDR-L2": "EASIRAS", "CDR-L3": "QQYQRLPLA", "log10 Kd (nM) by replicate": "1.39 / 1.32 / 1.45 / 2.89 / 1.95 / 1.91", "empty controls": "1/18 (2.75)"}
{"CDR-L1": "KVSIFMLTMDNAWSSIA", "CDR-L2": "NMAATRT", "CDR-L3": "QQYQRLPLS", "log10 Kd (nM) by replicate": "nd / nd / nd / nd / nd / nd", "empty controls": "0/18"}
{"CDR-L1": "TLHANIEYGGGTWKSIA", "CDR-L2": "DNTQRVD", "CDR-L3": "QYYQRLPLG", "log10 Kd (nM) by replicate": "nd / nd / nd / nd / nd / nd", "empty controls": "0/18"}
{"CDR-L1": "VMQMERLGQGQYQNNIA", "CDR-L2": "NQDLRTA", "CDR-L3": "QQYYMLPLV", "log10 Kd (nM) by replicate": "0.39 / 0.81 / 0.44 / 0.42 / 1.10 / 0.41", "empty controls": "0/18"}
{"CDR-L1": "KMHTLMYTANIGENSVA", "CDR-L2": "DANLHVD", "CDR-L3": "QQYFRLPLS", "log10 Kd (nM) by replicate": "1.30 / 0.75 / 0.81 / 0.74 / 0.73 / 1.11", "empty controls": "0/18"}
{"CDR-L1": "NVGGEDPGQWHMKDSIA", "CDR-L2": "GSSLRAE", "CDR-L3": "QQYWRLPLM", "log10 Kd (nM) by replicate": "0.36 / 0.01 / -0.03 / -0.01 / -0.02 / 0.33", "empty controls": "0/18"}
{"CDR-L1": "FFALDQDSMGDAKNSIA", "CDR-L2": "DRNTKAH", "CDR-L3": "QQYSRLPLV", "log10 Kd (nM) by replicate": "0.10 / -0.12 / -0.06 / -0.19 / -0.22 / -0.01", "empty controls": "0/18"}
{"CDR-L1": "RFDAAMPYANSNINSIA", "CDR-L2": "EKAIQAD", "CDR-L3": "QQYNRLPLS", "log10 Kd (nM) by replicate": "0.68 / 0.21 / 0.10 / 0.19 / 0.10 / 0.55", "empty controls": "0/18"}
{"CDR-L1": "KLSDPQELQYNKGQSVA", "CDR-L2": "EASEVCA", "CDR-L3": "QQFYRLPLV", "log10 Kd (nM) by replicate": "0.65 / 1.23 / 1.15 / 0.88 / 0.58 / 1.01", "empty controls": "0/18"}

From the AlphaSeq antibody data of Li et al. 2023 (doi:10.1038/s41467-023-39022-2), copy in the FLAb collection.